Where two headings read alike, the source gives them in different places.
Key:
A431 cells = assay: In vitro cytotoxicity analysis (Crystal Violet), A431; details: Homo sapiens
Experimental: (§1) Plates were read at 570 nm. Data was analyzed using GraphPad Prism 6.
(§2) All ADCs were purified and characterized using SEC-HPLC for aggregation analysis, HIC-HPLC for DAR analysis, and cell-based assay with A431-A3 (MSLN^hi), A431 (MSLN^lo), and OVCAR3 (MSLN^hi) cell lines.

OVCAR3 cells = assay: In vitro cytotoxicity analysis (Crystal Violet), OVCAR3; details: Homo sapiens
Experimental: as §1, §2

Q: With `C=C1C[C@@H]2CC[C@@]34C[C@H]5O[C@H]6[C@@H](O3)[C@H]3O[C@H](CC[C@@H]3O[C@H]6[C@H]5O4)CC(=O)C[C@@H]3[C@@H](OC)[C@@H](C[C@H](O)CN)O[C@H]3C[C@H]3O[C@@H](CC[C@@H]1O2)C[C@@H](C)C3=C` [Eribulin, eribulin] as the molecule, how does the EC50 (A431 cells; A-431, 120 h, read-out: Cell-Based Cytotoxicity Assay, EC50 (nM) A431) read?
A: The EC50 was 0.47 nM.

Q: And the EC50 (A431 cells; A-431, read-out: Cell-Based Cytotoxicity Assay EC50 (nM) A431)?
A: The EC50 was 0.47 nM.

Q: And the EC50 (OVCAR3 cells; OVCAR-3, 120 h, read-out: Cell-Based Cytotoxicity Assay, EC50 (nM) OVCAR3)?
A: Its EC50 is 0.11 nM.

Q: What about the EC50 (OVCAR3 cells; OVCAR-3, read-out: Cell-Based Cytotoxicity Assay EC50 (nM) OVCAR3) of the same molecule?
A: The EC50 was 0.11 nM.
